Reference: patent US8529904B2, “Immunotherapeutic methods using epitopes of WT-1 and GATA-1” (Ganymed Pharmaceuticals AG, priority 1998, dated 2013)

Columns and labels:
[1] = tested on: lymphocytes from HLA-A0201- donors; test: Generation of allo-HLA-restricted CTL lines (in vitro stimulation); assay type: cell-based, human; conditions: in vitro stimulation of lymphocytes from different donors
Description: Generation of allo-HLA-restricted CTL lines. PBMC were separated from buffy coat packs using Ficoll gradient centrifugation and stained with monoclonal antibodies HB54 (anti-HLA-A2, B17) and HB117 (anti-HLA-A2, A28). A2-negative PBMC were used as responders. Peptide coated Drosophila cells transfected with HLA-A0201, human β2-microglobulin, B7.1 and ICAM-1 were used as initial stimulators. Drosophila cells were induced in 100 mM CuSO4 for 48 hours washed three times with medium and loaded with peptide at a concentration of 100 μM for 4 hours. Each well of 24 well plate received 2×10^6 responder PBMC and 2×10^5 stimulator cells in 2 ml T cell medium. On day 5 T cells were harvested and plated in fresh T cell medium at a density of 5×10^5 per well with the addition of 2×10^6 autologous irradiated PBMC as feeders, 2×10^5 irradiated peptide-coated T2 cells, 10% QS4120 culture supernatant (containing anti-CD4 antibodies) and 10 U/ml hu-rIL-2 (Boehringer). The cultures were restimulated weekly using T2 cells coated with the immunizing peptide as stimulators. After 2-3 cycles of stimulation the bulk cultures were cloned in 96 well plates at a density of 1, 10 and 30 cells per well. 10^4 peptide-coated T2 cells, 2×10^5 HLA-A2 negative PBMC feeders and 2 U/ml IL-2 were added to each well. […]

[2] = molecular target: T1, HLA-A0201 (Homo sapiens, UniProt P04439, D140Y/D185E/D98H/E176V/E277Q/G131W/G231S/I119V/I121R/I166T/I218V/L300P/L318F/N151K/N90K/P208A/P217A/Q86G/Q94H/R138H/R169H/T345S); test: Peptide binding assay (surface HLA-A2 on T2 cells, FACS)
T1 construct: stained by indirect immunofluorescence for surface HLA-A2; endogenous in cells; host or cells: T2 cells (human, TAP-deficient; ATCC CRL 1992)
Description: Peptide binding assay: 5×10^5 T2 cells were incubated overnight (o/n) in 96 well plates in 100 ml of RPMI 1640 medium with 5% boiled FCS (to destroy proteases) and varying concentrations of synthetic peptides. Wells containing T2 cells without peptides or known A2-binding peptides were used as negative and positive control, respectively. Following overnight incubation cells were washed and stained by indirect immunofluorescence for surface HLA-A2 with A-2 specific monoclonal antibodies HB54 and HB117 (American Type Culture Collection, ATCC). FACS analysis was performed on a Coulter Corporation flow cytometer (Haiteah, Fla.).

Sequence: RMFPNAPYL [WT126-34]
- immunogenicity (induction of peptide-specific, HLA-A0201-restricted CTL) [1]: highly immunogenic
- binding to HLA-A0201 class I molecules [2]: binds
